Results on 13 molecules are retold here after paper PMC7723054.

T1: LIN28A (human?, UniProt Q9H9Z2 1-209)
T1 sequence: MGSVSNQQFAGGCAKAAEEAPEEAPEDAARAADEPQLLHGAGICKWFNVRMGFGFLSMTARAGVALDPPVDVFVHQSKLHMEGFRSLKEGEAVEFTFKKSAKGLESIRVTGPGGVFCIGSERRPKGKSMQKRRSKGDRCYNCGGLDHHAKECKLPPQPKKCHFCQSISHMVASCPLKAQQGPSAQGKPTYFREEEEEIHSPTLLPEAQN

T2: CIRBP (Homo sapiens, UniProt Q14011 1-172)
T2 sequence: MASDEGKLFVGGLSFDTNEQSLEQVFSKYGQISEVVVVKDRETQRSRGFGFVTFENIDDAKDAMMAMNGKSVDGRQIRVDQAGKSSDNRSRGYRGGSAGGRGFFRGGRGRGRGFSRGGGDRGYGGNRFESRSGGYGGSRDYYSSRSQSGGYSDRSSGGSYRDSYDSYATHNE

T3: DHX36 (Homo sapiens, UniProt Q9H2U1 1-1008)
T3 sequence: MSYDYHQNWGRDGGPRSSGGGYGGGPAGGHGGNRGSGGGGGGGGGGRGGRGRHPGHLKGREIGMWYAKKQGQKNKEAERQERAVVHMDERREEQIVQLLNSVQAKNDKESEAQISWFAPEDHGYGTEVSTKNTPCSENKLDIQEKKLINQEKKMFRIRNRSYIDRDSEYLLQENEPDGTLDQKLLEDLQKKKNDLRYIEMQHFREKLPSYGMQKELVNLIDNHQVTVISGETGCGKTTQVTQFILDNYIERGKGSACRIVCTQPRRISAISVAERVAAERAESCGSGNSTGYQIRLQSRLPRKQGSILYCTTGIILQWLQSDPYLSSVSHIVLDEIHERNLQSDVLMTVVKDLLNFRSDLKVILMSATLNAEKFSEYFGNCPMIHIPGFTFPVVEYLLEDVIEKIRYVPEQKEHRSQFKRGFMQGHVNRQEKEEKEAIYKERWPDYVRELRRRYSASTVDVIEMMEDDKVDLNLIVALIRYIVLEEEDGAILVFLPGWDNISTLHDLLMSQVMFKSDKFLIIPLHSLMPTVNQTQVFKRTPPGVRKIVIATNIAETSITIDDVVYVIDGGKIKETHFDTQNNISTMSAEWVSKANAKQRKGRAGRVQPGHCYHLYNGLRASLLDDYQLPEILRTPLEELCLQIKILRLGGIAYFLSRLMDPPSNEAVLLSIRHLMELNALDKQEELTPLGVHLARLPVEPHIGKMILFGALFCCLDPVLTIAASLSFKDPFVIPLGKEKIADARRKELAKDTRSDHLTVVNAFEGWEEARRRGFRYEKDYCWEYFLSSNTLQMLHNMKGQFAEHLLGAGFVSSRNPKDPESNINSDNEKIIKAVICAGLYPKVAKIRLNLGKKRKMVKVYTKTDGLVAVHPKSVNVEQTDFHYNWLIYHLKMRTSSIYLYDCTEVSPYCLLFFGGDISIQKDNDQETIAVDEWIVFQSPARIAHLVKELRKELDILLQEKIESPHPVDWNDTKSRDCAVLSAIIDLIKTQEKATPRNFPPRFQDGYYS

B1: hsa-mir-4708 (structured_RNA)
RNA: GGGAAAGACUUGGUUCCCUGGGUACACCGGUGUACGAAGUUUCAGCUGCUCCUUGAACAGGAGGAGCAGCUGAAGCUUCGUGCAC
B2: hsa-mir-1293 (structured_RNA)
RNA: GGGACAAACUACUGCGUCUAGGAAUGAUGGUGUACGAAGUUUCAGCGUGCAGCUUGUACCUGCACGCUGAAGCUUCGUGCAC
B3: hsa-mir-4452 (structured_RNA)
RNA: GGGACCCGCAUCUACCCUUCAUACUGAGGGUGUACGAAGUUUCAGCGCAAGGCUGUAGUGUGCACAGCCUUGAGCUGAAGCUUCGUGCAC
B4: hsa-mir-4463 (structured_RNA)
RNA: GGGAACAGUACGGUUCGAACACGACGCCGGUGUACGAAGUUUCAGCUUUCUGAAUUUGUGAGAGCUGAAGCUUCGUGCAC
B5: hsa-mir-6790 (structured_RNA)
RNA: GGGAGAUUGAUGGGAGAACGAUCACUUUGGUGUACGAAGUUUCAGCGUUCGGGGGUUCCGACGGCGACGCUGAAGCUUCGUGCAC
B6: hsa-mir-378i (structured_RNA)
RNA: GGGAUAAAAGACGAGGUAUCAAUCUGCAGGUGUACGAAGUUUCAGCAAGGUGGAGUUCUGGGUGCUGUUUUCCCACUCUGCUGAAGCUUCGUGCAC
B7: hsa-mir-129-2 (structured_RNA)
RNA: GGGAAUAAUUGGCCCGUGUGACCCAUUCGGUGUACGAAGUUUCAGCGCUUGCUGUACAUAACUCAAUAGCCGGAAGCGCUGAAGCUUCGUGCAC
B8: hsa-mir-1323 (structured_RNA)
RNA: GGGAAUCCAUGUAGGACCUGCGGAGAUAGGUGUACGAAGUUUCAGCUUCUGUGGUUUGAAAGGAAGCUGAAGCUUCGUGCAC
B9: hsa-mir-29b-1 (structured_RNA)
RNA: GGGAACAGCCUGGCGGUAUUAAACUGUGGGUGUACGAAGUUUCAGCUUUAGAUUUAAAUAGUGAUUGUCUAGGCUGAAGCUUCGUGCAC
B10: hsa-mir-3945 (structured_RNA)
RNA: GGGAACGUACUAGUAUCUCUGGGUAGCAGGUGUACGAAGUUUCAGCAUAUAAAAUGCAAUUAGCUGAAGCUUCGUGCAC
B11: hsa-mir-647 (structured_RNA)
RNA: GGGAAGUCGUCAUAGCAACUACAACGAUGGUGUACGAAGUUUCAGCCUUCAGCCCCAGGAAGCCUUGGUCGGGGGCAGGAGGCUGAAGCUUCGUGCAC
B12: hsa-mir-4497 (structured_RNA)
RNA: GGGAAGGUGUUGACCCUUAGUAACCAGAGGUGUACGAAGUUUCAGCGGGCGCCGGCGGCCGGGAGAUCCGCGCUUCCUGAAUCCCGGCCGGCCCGCCCGGCGCCCGCUGAAGCUUCGUGCAC
B13: hsa-mir-361 (structured_RNA)
RNA: GGGAAAGGCCGAUCUACGUUUAGCAAGAGGUGUACGAAGUUUCAGCGGUACUUUAUAAUUUCAAAAAGUCCCGCUGAAGCUUCGUGCAC

The list shows a part of the results.

The target in the first assay is T1, LIN28A. Description: FOREST: bead pull-down of RNA structure library v1, barcode microarray; U1A/LIN28A: 20 mM HEPES pH 7.5, 80 mM KCl, 20 mM NaCl, 10% glycerol, 2 mM DTT, 0.1 ug/uL BSA, 4 C; BG4/CIRBP/DHX36: 10 mM Tris-HCl pH 7.5, 100 mM KCl (or LiCl),; high values mean tight binding.
B1 came in with a binding signal of 1.13 z-score.
The same measure, in the same setting: as for B2, the figure is 1.14 z-score.
Still for that read-out and setting: as for B3, the figure is 1.14 z-score; as for B4, 1.17 z-score; as for B5, 1.13 z-score.
On the same count and under the same terms, the same measure for B6: 1.2 z-score.
B7 had a binding signal of 1.16 z-score.
B8 yielded a binding signal of 1.14 z-score.
Still for that read-out and setting: as for B9, the figure is 1.19 z-score; as for B10, 1.21 z-score; as for B11, 1.16 z-score.
Same read-out and setting: the same measure for B12: 1.21 z-score; for B13: 1.2 z-score.

The next assay addresses T2, CIRBP. The description is as above.
As to B1, the binding signal is 0.801 z-score.
Molecule B2 had a binding signal of 0.178 z-score.
Same read-out and setting: as for B3, the figure is 0.828 z-score; as for B4, -0.094 z-score.
Still for that read-out and setting: as for B5, the figure is 1.66 z-score; as for B6, 2.84 z-score.
On the same count and under the same terms, as for B7, the figure is 0.424 z-score; as for B8, 1.22 z-score.
B9: the binding signal is -0.331 z-score.
As to B10, the binding signal worked out at 1.11 z-score.
The same measure, in the same setting: as for B11, the figure is -0.509 z-score; as for B12, -0.293 z-score.
As to B13, the binding signal is 1.51 z-score.

A further assay deals with T3, DHX36. The description is as above.
Turning to B1, the binding signal was -0.292 z-score.
Same read-out and setting: the same measure for B2: 1.13 z-score; for B3: -0.968 z-score.
On the same count and under the same terms, as for B4, the figure is -0.572 z-score.
On the same count and under the same terms, the same measure for B5: 2.04 z-score; for B6: 1.36 z-score; for B7: 0.633 z-score.
With B8, the binding signal was -0.305 z-score.
On the same count and under the same terms, the same measure for B9: 0.197 z-score; for B10: -0.685 z-score; for B11: 0.191 z-score.
The same measure, in the same setting: as for B12, the figure is 1.1 z-score; as for B13, 0.067 z-score.
